From US9090628B2, “Benzoxazepin compounds selective for PI3K P110 delta and methods of use” (GENENTECH, INC., priority 2011, dated 2015)

Sequences of proteins named here, by UniProt entry; tags and fusion partners are left off. A change or cut given only in a name is not applied to a line headed by its entry.
UniProt O00329: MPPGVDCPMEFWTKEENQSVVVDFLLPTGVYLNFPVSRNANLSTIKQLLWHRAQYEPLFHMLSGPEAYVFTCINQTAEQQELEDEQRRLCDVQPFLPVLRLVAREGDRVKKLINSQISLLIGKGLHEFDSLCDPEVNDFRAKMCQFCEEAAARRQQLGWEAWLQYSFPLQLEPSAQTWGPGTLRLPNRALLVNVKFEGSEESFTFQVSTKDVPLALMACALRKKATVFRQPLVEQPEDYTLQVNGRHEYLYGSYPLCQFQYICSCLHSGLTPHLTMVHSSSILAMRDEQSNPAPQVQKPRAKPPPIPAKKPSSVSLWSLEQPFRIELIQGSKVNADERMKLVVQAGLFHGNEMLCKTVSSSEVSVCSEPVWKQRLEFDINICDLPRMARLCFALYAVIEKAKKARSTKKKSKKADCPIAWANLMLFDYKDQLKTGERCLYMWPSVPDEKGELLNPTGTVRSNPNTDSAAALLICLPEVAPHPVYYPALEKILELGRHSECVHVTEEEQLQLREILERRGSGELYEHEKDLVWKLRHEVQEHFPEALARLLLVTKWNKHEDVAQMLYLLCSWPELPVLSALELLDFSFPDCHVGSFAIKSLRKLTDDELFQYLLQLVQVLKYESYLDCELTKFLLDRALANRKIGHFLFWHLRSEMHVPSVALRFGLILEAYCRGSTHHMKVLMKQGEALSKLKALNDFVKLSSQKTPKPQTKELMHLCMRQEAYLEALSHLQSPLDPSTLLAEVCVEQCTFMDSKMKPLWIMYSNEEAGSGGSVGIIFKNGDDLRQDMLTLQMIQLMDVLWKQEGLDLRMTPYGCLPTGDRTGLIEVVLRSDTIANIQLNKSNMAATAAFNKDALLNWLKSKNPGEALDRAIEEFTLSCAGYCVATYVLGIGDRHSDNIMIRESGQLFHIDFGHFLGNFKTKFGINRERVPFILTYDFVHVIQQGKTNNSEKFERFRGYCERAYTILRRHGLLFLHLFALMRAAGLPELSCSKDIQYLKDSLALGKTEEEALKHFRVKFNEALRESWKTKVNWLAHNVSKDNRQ
UniProt P42336, whole entry: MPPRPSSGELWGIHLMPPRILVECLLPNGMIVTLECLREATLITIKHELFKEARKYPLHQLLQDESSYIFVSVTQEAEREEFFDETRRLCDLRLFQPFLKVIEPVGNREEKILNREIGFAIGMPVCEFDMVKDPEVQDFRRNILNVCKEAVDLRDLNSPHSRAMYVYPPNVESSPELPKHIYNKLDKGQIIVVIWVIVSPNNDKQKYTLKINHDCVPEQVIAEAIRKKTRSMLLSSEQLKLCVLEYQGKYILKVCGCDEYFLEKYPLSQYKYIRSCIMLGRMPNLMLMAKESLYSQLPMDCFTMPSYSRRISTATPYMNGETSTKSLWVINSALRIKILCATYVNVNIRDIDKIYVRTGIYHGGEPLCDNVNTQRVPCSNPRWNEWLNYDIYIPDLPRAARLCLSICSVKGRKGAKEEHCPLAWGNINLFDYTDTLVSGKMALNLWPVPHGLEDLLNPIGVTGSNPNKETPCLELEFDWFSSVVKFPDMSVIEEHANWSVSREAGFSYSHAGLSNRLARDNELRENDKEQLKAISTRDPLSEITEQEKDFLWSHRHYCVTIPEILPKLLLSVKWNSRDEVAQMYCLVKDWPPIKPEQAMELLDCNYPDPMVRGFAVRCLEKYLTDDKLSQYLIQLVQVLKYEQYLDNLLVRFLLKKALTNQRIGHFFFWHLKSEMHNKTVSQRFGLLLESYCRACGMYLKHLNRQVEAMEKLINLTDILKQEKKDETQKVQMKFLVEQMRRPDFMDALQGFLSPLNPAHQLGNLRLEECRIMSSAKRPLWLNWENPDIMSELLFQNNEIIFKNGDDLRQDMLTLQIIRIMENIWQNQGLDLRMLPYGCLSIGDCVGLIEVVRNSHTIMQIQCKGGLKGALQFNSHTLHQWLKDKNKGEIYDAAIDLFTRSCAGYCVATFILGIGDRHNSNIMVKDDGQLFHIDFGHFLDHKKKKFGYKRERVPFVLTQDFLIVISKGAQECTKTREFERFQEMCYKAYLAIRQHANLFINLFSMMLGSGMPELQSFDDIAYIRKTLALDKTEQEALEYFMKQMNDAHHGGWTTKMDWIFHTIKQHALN

Experiments:
p110 delta = p110 delta (Homo sapiens (Human), UniProt O00329); assay: PI3K isoform inhibition assay, p110 delta (fluorescence polarization displacement); assay type: biochemical
Description: (§1) PI3K enzymatic activity was assayed by measuring the amount of product phosphatidylinositol 3,4,5-phosphate (PIP3) formed from substrate 4,5 phosphatidylinositol 4,5-phosphate (PIP2) using a fluorescence polarization displacement assay. The decrease in fluorescence polarization of a fluorescent PIP3 probe is measured as it is displaced from a PIP3-binding protein GRP-1 detector by PI3K-catalyzed product. […] The kinase reactions were initiated by the addition of 40 ng/mL p110α/p85α, 300 ng/mL p110β/p85α, 40 ng/mL p110γ, or 40 ng/mL p110δ/p85α (Upstate Group, Millipore; Dundee, UK), and 10 μM PIP2 (Echelon Biosciences) to the wells. […] After 60 minutes of incubation at room temperature to allow equilibration of labeled and unlabeled PIP3 binding, the parallel and perpendicular components of the fluorescence emissions from each sample were measured at an excitation wavelength of 530 nm and an emission wavelength of 590 nm using an Envision fluorescent plate reader with a rhodamine filter (PerkinElmer Life and Analytical Sciences; Wellesley, Mass.). The assay is capable of detecting 0.1-2.0 μM PIP3 product. The IC50 values were obtained by fitting the dose-dependent inhibition data to a 4-parameter equation using Assay Explorer software (MDL, San Ramon, Calif.).
The Formula I compound was serially diluted in 100% DMSO. The kinase reaction was incubated for 1 h at room temperature, and the reaction was terminated by the addition of PBS. IC50 values were subsequently determined using sigmoidal dose-response curve fit (variable slope).
(§2) The four Class I PI 3-kinases are cloned into baculovirus vectors as follows: […]

p110 alpha = p110 alpha (Homo sapiens (Human), UniProt P42336); assay: PI3K isoform inhibition assay, p110 alpha (for alpha/delta selectivity); details: ratio of biochemical IC50 values
Description: as §1
The same protocol may be used to establish IC50 values for p110α (alpha) PI3K binding.
as §2

SMILES | IC50 (p110 delta) [nM] | IC50 p110 alpha/IC50 p110 delta (p110 alpha)
Cc1nc(-c2cn3c(n2)-c2cnc(N4CCCC4C4CCCCN4C)cc2OCC3)n(CC(F)(F)F)n1 (stereo not drawn) [Example 103, (cis)-2-(3-methyl-1-(2,2,2-trifluoroethyl)-1H-1,2,4-triazol-5-yl)-9-(2-(1-methylpiperidin-2-yl)pyrrolidin-1-yl)-5,6-dihydroimidazo[1,2-d]pyrido[3,4-f][1,4]oxazepine] | 0.106 | 34.2
Cc1nc(-c2cn3c(n2)-c2cnc(N4CCCC4C4CCCCN4C)cc2OCC3)n(CC(F)(F)F)n1 (stereo not drawn) [Example 104, (trans)-2-(3-methyl-1-(2,2,2-trifluoroethyl)-1H-1,2,4-triazol-5-yl)-9-(2-(1-methylpiperidin-2-yl)pyrrolidin-1-yl)-5,6-dihydroimidazo[1,2-d]pyrido[3,4-f][1,4]oxazepine] |  | 12.4
Cc1nc(-c2cn3c(n2)-c2ccc(N4CCC4C4CCN(C)CC4)cc2OCC3)n(C(C)C)n1 (centres unmarked) [Example 307, 2-(2-isopropyl-5-methyl-1,2,4-triazol-3-yl)-9-[2-(1-methyl-4-piperidyl)azetidin-1-yl]-5,6-dihydroimidazo[1,2-d][1,4]benzoxazepine] | 0.708 | 
Cc1nc(-c2cn3c(n2)-c2ccc(N4CCC[C@@H]4C4CCN(C(C)C)CC4)cc2OCC3)n(C(C)C)n1 [Example 263, (R)-2-(1-isopropyl-3-methyl-1H-1,2,4-triazol-5-yl)-9-(2-(1-isopropylpiperidin-4-yl)pyrrolidin-1-yl)-5,6-dihydrobenzo[f]imidazo[1,2-d][1,4]oxazepine] |  | 37.5
Cc1nc(-c2cn3c(n2)-c2cc([C@@H](C)N4CCN(C(C)(C)C)CC4)c(C)cc2OCC3)n(C(C)C)n1 [Example 299, (R)-10-(1-(4-tert-butylpiperazin-1-yl)ethyl)-2-(1-isopropyl-3-methyl-1H-1,2,4-triazol-5-yl)-9-methyl-5,6-dihydrobenzo[f]imidazo[1,2-d][1,4]oxazepine] | 0.479 | 
Cc1nc(-c2cn3c(n2)-c2cnc(N4CCCC4C4CCCCN4C)cc2OCC3)n(CC(F)(F)F)n1 (centres unmarked) [Example 102, 2-(3-methyl-1-(2,2,2-trifluoroethyl)-1H-1,2,4-triazol-5-yl)-9-(2-(1-methylpiperidin-2-yl)pyrrolidin-1-yl)-5,6-dihydroimidazo[1,2-d]pyrido[3,4-f][1,4]oxazepine] | 0.107 | 17.3
Cc1nc(-c2cn3c(n2)-c2cnc(N4CCCC4C4CCCCN4C)cc2OCC3)n(CC(F)(F)F)n1 (centres unmarked) [Example 101, 2-(3-methyl-1-(2,2,2-trifluoroethyl)-1H-1,2,4-triazol-5-yl)-9-(2-(1-methylpiperidin-2-yl)pyrrolidin-1-yl)-5,6-dihydroimidazo[1,2-d]pyrido[3,4-f][1,4]oxazepine] | 0.102 | 18.6
Cc1nc(-c2cn3c(n2)-c2ccc(-c4cnn(C)c4C4CCCN(C(C)(C)CO)C4)cc2OCC3)n(C(C)C)n1 (centres unmarked) [Example 310, 2-[3-[4-[2-(2-isopropyl-5-methyl-1,2,4-triazol-3-yl)-5,6-dihydroimidazo[1,2-d][1,4]benzoxazepin-9-yl]-2-methyl-pyrazol-3-yl]-1-piperidyl]-2-methyl-propan-1-ol] | 0.262 | 
Cc1nc(-c2cn3c(n2)-c2ccc(N4CCC4C4CCN(C)CC4)cc2OCC3)n(C(C)C)n1 (centres unmarked) [Example 308, 2-(2-isopropyl-5-methyl-1,2,4-triazol-3-yl)-9-[2-(1-methyl-4-piperidyl)azetidin-1-yl]-5,6-dihydroimidazo[1,2-d][1,4]benzoxazepine] | 0.419 | 

Now from value to compound:

IC50 (p110 delta) [nM] | IC50 p110 alpha/IC50 p110 delta (p110 alpha) | SMILES
0.735 |  | Cc1nc(-c2cn3c(n2)-c2ccc(-c4cnn(C)c4C4CC(N(C)C)CCO4)cc2OCC3)n(C(C)C)n1 (centres unmarked) [Example 312, 2-[4-[2-(2-isopropyl-5-methyl-1,2,4-triazol-3-yl)-5,6-dihydroimidazo[1,2-d][1,4]benzoxazepin-9-yl]-2-methyl-pyrazol-3-yl]-N,N-dimethyl-tetrahydropyran-4-amine]
0.494 |  | Cc1nc(-c2cn3c(n2)-c2ccc(-c4cnn(C)c4[C@@H]4CCCN(C(C)C)C4)cc2OCC3)n(C(C)C)n1 [Example 291, (R)-2-(1-isopropyl-3-methyl-1H-1,2,4-triazol-5-yl)-9-(5-(1-isopropylpiperidin-3-yl)-1-methyl-1H-pyrazol-4-yl)-5,6-dihydrobenzo[f]imidazo[1,2-d][1,4]oxazepine]
1.65 |  | Cc1nc(-c2cn3c(n2)-c2ccc(-c4cnn(C)c4C4CC(N(C)C)CCO4)cc2OCC3)n(C(C)C)n1 (centres unmarked) [Example 302, 2-[4-[2-(2-isopropyl-5-methyl-1,2,4-triazol-3-yl)-5,6-dihydroimidazo[1,2-d][1,4]benzoxazepin-9-yl]-2-methyl-pyrazol-3-yl]-N,N-dimethyl-tetrahydropyran-4-amine]
0.864 |  | Cc1nc(-c2cn3c(n2)-c2ccc(-c4cnn(C)c4C4CC(N(C)C)CCO4)cc2OCC3)n(C(C)C)n1 (centres unmarked) [Example 329, 2-[4-[2-(2-isopropyl-5-methyl-1,2,4-triazol-3-yl)-5,6-dihydroimidazo[1,2-d][1,4]benzoxazepin-9-yl]-2-methyl-pyrazol-3-yl]-N,N-dimethyl-tetrahydropyran-4-amine]
0.324 |  | Cc1nc(-c2cn3c(n2)-c2ccc(-c4cnn(C)c4C4CCCN(C(C)C)C4)cc2OCC3)n(C(C)C)n1 (centres unmarked) [Example 279, 2-(2-isopropyl-5-methyl-1,2,4-triazol-3-yl)-9-[5-(1-isopropyl-3-piperidyl)-1-methyl-pyrazol-4-yl]-5,6-dihydroimidazo[1,2-d][1,4]benzoxazepine]
0.721 |  | Cc1nc(-c2cn3c(n2)-c2ccc(-c4cnn(C)c4C4CC(N(C)C)CCO4)cc2OCC3)n(C(C)C)n1 (centres unmarked) [Example 295, 2-[4-[2-(2-isopropyl-5-methyl-1,2,4-triazol-3-yl)-5,6-dihydroimidazo[1,2-d][1,4]benzoxazepin-9-yl]-2-methyl-pyrazol-3-yl]-N,N-dimethyl-tetrahydropyran-4-amine]
0.63 |  | Cc1nc(-c2cn3c(n2)-c2ccc(-c4cnn(C)c4C4CC(N(C)C)CCO4)cc2OCC3)n(C(C)C)n1 (centres unmarked) [Example 330, 2-[4-[2-(2-isopropyl-5-methyl-1,2,4-triazol-3-yl)-5,6-dihydroimidazo[1,2-d][1,4]benzoxazepin-9-yl]-2-methyl-pyrazol-3-yl]-N,N-dimethyl-tetrahydropyran-4-amine]
1.2 |  | Cc1nc(-c2cn3c(n2)-c2ccc(-c4cnn(C)c4C4CC(N(C)C)CCO4)cc2OCC3)n(C(C)C)n1 (centres unmarked) [Example 363, 2-[4-[2-(2-isopropyl-5-methyl-1,2,4-triazol-3-yl)-5,6-dihydroimidazo[1,2-d][1,4]benzoxazepin-9-yl]-2-methyl-pyrazol-3-yl]-N,N-dimethyl-tetrahydropyran-4-amine]
